Here are results for 56 compounds from PubChem BioAssay AID504454 (NMMLSC, 2011).

The chains behind the UniProt entries cited, without tags or fusion partners.
UniProt P07550, whole entry: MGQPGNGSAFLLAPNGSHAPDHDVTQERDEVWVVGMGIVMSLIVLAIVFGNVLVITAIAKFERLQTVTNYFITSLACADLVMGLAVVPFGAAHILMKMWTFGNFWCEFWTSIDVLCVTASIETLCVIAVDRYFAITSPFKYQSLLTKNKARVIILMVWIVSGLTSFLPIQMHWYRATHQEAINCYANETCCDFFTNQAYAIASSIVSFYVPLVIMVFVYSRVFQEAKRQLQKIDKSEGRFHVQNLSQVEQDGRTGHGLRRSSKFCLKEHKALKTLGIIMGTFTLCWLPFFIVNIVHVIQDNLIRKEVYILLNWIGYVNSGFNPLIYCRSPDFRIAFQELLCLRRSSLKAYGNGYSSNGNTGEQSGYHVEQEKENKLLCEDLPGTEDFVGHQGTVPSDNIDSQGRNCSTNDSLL

Structures are written as SMILES. This is a selection; strong and weak results do not stand in their true shares. Calls of active or inactive are those of the source.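 The calls were made as follows: active = response above a set limit, near 3 SD of response in nonfluorescent compounds (cut at about 42% in these data); inactive = the rest.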

The target of this test is Beta-2 adrenergic receptor (Homo sapiens) (UniProt P07550). Briefly: agonist-induced loss of surface beta2AR – cell-based, FAP fluorogen, flow cytometry, primary screen (AID 504454). The settings on record: Am2.2-beta2AR cells, FAP receptor internalization, active compounds read high, concentration not given here.
With `C[C@H]1OP(=O)(Oc2ccccc2)C[C@@H]2O[C@@H]21` (stereo partly specified), the response was inactive: 1.22%. The value for `C[C@@H]1C=CCP(=O)(Oc2ccccc2)O1` (stereo partly specified) was inactive: -0.25%. The value for `CCc1cc(O)c([N+](=O)[O-])c(C)c1[N+](=O)[O-]` was inactive: -2.54%; that for `CP(=O)(Nc1ccccc1F)Oc1ccccc1` (stereo unspecified) was inactive: 5.63%; that for `CC(C)(C)C(=O)NC(Sc1ccccc1)C(Cl)(Cl)Cl` (stereo unspecified) was inactive: -1.33%.

In the case of `CC(C)c1ccc(OP(C)(=O)Nc2ccc(SC(F)(F)F)cc2)cc1` (stereo unspecified), the response was inactive: -2.94%.

For `O=P1(Nc2nc3ccc(Cl)cc3s2)COc2ccccc2O1` (stereo unspecified), the response was inactive: -2.66%. The value for `CCOc1ccc(C2=NCC(CBr)S2)cc1` (stereo unspecified) was inactive: 1.71%; that for `Cc1ccccc1NP(C)(=O)Nc1ccccc1C` was inactive: -1.14%. Consider `CP(=O)(Nc1ccc2c(c1)OCCO2)Oc1ccccc1` (stereo unspecified), for which the response is inactive: -1.23%.

Regarding `CCOP(C)(=S)SCC(=O)NC(C)(CC)C(=O)O` (stereo unspecified), the response is inactive: 3.68%.

Consider `c1nnnn1CCn1cnnn1`, for which the response is inactive: -6.55%. As for `CP(=O)(Nc1ccc(SC(F)(F)F)cc1)Oc1ccc(F)cc1` (stereo unspecified), the figure is inactive: -3.2%; as for `O=P(Nc1nccs1)(c1ccccc1)c1ccccc1`, inactive: 5.51%; as for `CC(C)C(=O)NC(Sc1ccccc1)C(Cl)(Cl)Cl` (stereo unspecified), inactive: -5.34%. The value for `Cc1c(C(c2ccc3c(c2)OCO3)c2c(C)n(C)n(-c3ccccc3)c2=O)c(=O)n(-c2ccccc2)n1C.O=[N+]([O-])c1cc([N+](=O)[O-])c(O)c([N+](=O)[O-])c1` was inactive: -3.66%. As for `C(Cc1nn[nH]n1)Cc1nn[nH]n1`, the figure is inactive: 2.87%; as for `Nc1ccc([As](=O)(O)c2ccc([N+](=O)[O-])cc2)cc1`, inactive: 2.59%. Turning to `O=C(OC1CN2CCC1CC2)c1cccc(Cl)c1` (stereo unspecified), the response is inactive: -1.03%. As for `O=[N+]([O-])c1ccc(OP2(=O)COCCO2)cc1` (stereo unspecified), the figure is inactive: -4.66%.

On to `CC(=O)NC(SC(=S)N(C)C)C(Cl)(Cl)Cl` (stereo unspecified), for which the response was inactive: 1.02%. The value for `O=[N+]([O-])c1ncn(CCn2cnc([N+](=O)[O-])n2)n1` was inactive: 4.27%; that for `O=[N+]([O-])c1ccc(O)c(/C=N/Nc2ccc([N+](=O)[O-])cc2[N+](=O)[O-])c1` was inactive: 31%. Turning to `O=[As](O)(c1ccccc1)c1ccc(O)cc1`, the response is inactive: -1.26%. As for `Cc1cc(-c2cccc3ccccc23)c(C)cn1.O=[N+]([O-])c1cc([N+](=O)[O-])c(O)c([N+](=O)[O-])c1`, the figure is inactive: 9.63%; as for `O=[N+]([O-])c1cc([N+](=O)[O-])c(NCC2CCS(=O)(=O)C2)c([N+](=O)[O-])c1` (stereo unspecified), inactive: 2.83%; as for `O=P(Nc1nc2ccccc2s1)(c1ccccc1)c1ccccc1`, inactive: 5.76%. As for `CN(C)CCOC(=O)C(O)(c1ccccc1)C1CCCCC1` (stereo unspecified), the figure is inactive: 7.99%. The value for `C[C@H]1OP(=O)(Oc2ccccc2)[C@H](O)[C@H](O)[C@H]1N=[N+]=[N-]` (stereo partly specified) was inactive: 0.52%. For the compound `COc1ccc(NP(C)(=O)Oc2ccccc2OC)cc1` (stereo unspecified), the response is inactive: 2.32%. Regarding `COc1ccc(OP(C)(=O)Nc2cccc(Br)c2)cc1` (stereo unspecified), the response is inactive: -1.03%. The value for `COc1ccc(N)c([N+](=O)[O-])c1[N+](=O)[O-]` was inactive: -0.7%; that for `CN(C)C1(CNC(=O)c2ccc(Cl)c(S(N)(=O)=O)c2)CCCCC1` was inactive: 16.1%; that for `O=P(Nc1ccccn1)(c1ccc(Br)cc1)c1ccc(Br)cc1` was inactive: 9.77%. As for `Cc1ccc(OCC(=O)OC2CN3CCC2CC3)cc1` (stereo unspecified), the response is inactive: -2.09%. The value for `O=[As](O)(c1cccs1)c1cccs1` was inactive: -0.09%; that for `NS(=O)(=O)c1cccc(NC(=O)COC(=O)C(O)(c2ccccc2)c2ccccc2)c1` was inactive: -1.32%; that for `O=P1(Nc2ccc(Br)cn2)COc2ccccc2OC1` was inactive: 2.4%. As for `CCCOc1ccc(NP(C)(=O)Oc2ccc(Cl)cc2)cc1` (stereo unspecified), the figure is inactive: -11.3%. As for `CP(=O)(Nc1ccc(SC(F)(F)F)cc1)Oc1ccccc1` (stereo unspecified), the figure is inactive: 2.71%; as for `Nc1cccc([As](=O)(O)c2ccccc2)c1`, inactive: 2.9%; as for `CN1CCCCC1COC(=O)C1(O)c2ccccc2CCc2ccccc21` (stereo unspecified), inactive: 16.2%. `COc1ccccc1OP(C)(=O)Nc1c(C)cccc1C` (stereo unspecified): the response is inactive: -2.22%. With `O=P1(Nc2ncccn2)COc2ccccc2OC1`, the response is inactive: 8.5%. As for `O=C(/C=C/c1ccccc1)OC1CN2CCC1CC2` (stereo unspecified), the figure is inactive: -5.67%. As to `CCCC1OP(=O)(Nc2ccccc2)OCC1CC` (stereo unspecified), the response is inactive: 0.14%. As for `CC1=C2N=C(C=C3N=C(C(C)=C4[N-][C@@](C)([C@@H]5N=C1[C@](C)(CCC(=O)NC[C@@H](C)OP(=O)([O-])O[C@H]1[C@@H](O)[C@@H](n6cnc7cc(C)c(C)cc76)O[C@@H]1CO)[C@H]5CC(N)=O)[C@@](C)(CC(N)=O)[C@@H]4CCC(N)=O)[C@@](C)(CC(N)=O)[C@@H]3CCC(N)=O)C(C)(C)[C@@H]2CCC(N)=O.[C-]#N.[Co+3]`, the figure is inactive: -4.31%; as for `CN(C)C1(CNC(=O)c2ccc(S(C)(=O)=O)cc2)CCCCC1`, inactive: 0.36%.

Take `O=[N+]([O-])c1cc([N+](=O)[O-])c(Nc2nnnn2CCO)c([N+](=O)[O-])c1`: the response is inactive: 4.6%.

`CCOC(=O)C(CC)C1=NC(C)(C)Cc2ccccc21.O=[N+]([O-])c1cc([N+](=O)[O-])c(O)c([N+](=O)[O-])c1` (stereo unspecified): the response is inactive: 2.34%.

Turning to `COc1cc(C2NCCC3(OCCO3)C2(C)C)cc(OC)c1OC.O=[N+]([O-])c1cc([N+](=O)[O-])c(O)c([N+](=O)[O-])c1` (stereo unspecified), the response is inactive: 11.2%. Consider `Cc1nn(-c2ccccc2)c2c1P(=O)(N1CCOCC1)N(C)C(c1ccccc1)=N2` (stereo unspecified), for which the response is inactive: -0.01%. The value for `Cc1ccc(C(=O)OC2CN3CCC2CC3)cc1` (stereo unspecified) was inactive: -0.58%.

In the case of `CC1CCC(C(C)C)C(OP(=O)(Nc2ccccn2)c2ccccc2)C1` (stereo unspecified), the response was inactive: 17.5%. For `CC1(CBr)Cn2c(nc3ccccc3c2=O)S1` (stereo unspecified), the response is inactive: -10.8%. The value for `Cc1nc2ccc3ccccc3c2s1.O=[N+]([O-])c1cc([N+](=O)[O-])c(O)c([N+](=O)[O-])c1` was inactive: -2.15%.
